This data set deals with 3T3 fibroblasts. The conditions noted are these: after 4 to 8 hours under liquid crystal.

Each structure is given as a SMILES string.

As for `CCCCCc1ccc(-c2ccc(C#N)cc2)cc1` [5CB, 4-cyano-4′-pentylbiphenyl], the “morphology of cells after removal of liquid crystal” value was “rounded up 3T3 fibroblasts were observed, and many were displaced from the surface by rinsing”.
